Yeast mating assay B: variants of the scFv Ab-14

Data: MIT Lincoln Laboratory AlphaSeq set, Li et al. 2023, doi:10.1038/s41467-023-39022-2, as distributed in FLAb.

Target peptide (SARS-CoV-2 spike, HR2 region): PDVDLGDISGINAS

Parent scFv Ab-14: VH joined to VL by a (GGGGS)3 linker. Changes lie in the heavy chain CDRs alone.
VH: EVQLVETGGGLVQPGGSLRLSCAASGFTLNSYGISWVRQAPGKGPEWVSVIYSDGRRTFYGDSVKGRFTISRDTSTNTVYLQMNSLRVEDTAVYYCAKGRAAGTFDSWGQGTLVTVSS
VL: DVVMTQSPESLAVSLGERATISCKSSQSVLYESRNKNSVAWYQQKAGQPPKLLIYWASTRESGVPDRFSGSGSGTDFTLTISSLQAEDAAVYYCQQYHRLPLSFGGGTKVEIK

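These sequences belong to a second round, designed from the earlier measurements on random variants of the parent. Group labels follow the data file (Ctrl: baseline library sampled from a position-specific scoring matrix, with some repeated check sequences; En: ensemble of fine-tuned language models; HC: hill climbing; Gen: genetic algorithm; Gibbs: Gibbs sampling; a sequence that several methods proposed may carry one label only). The scFvs were displayed on barcoded MATa yeast, the peptide on MATalpha yeast. The frequency of each diploid, read from paired DNA barcodes, reflects how well the two displayed proteins bind. Each replicate has its own calibration line, from reference interactions of the BCL2 family. There are six technical replicates.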

The parent's heavy chain CDRs are GFTLNSYGIS, VIYSDGRRTFYGDSVK, GRAAGTFDS; each variant's own CDRs replace them letter for letter.
This list holds designs with more than six substitutions.
Each Kd is an estimate from the mating assay, the geometric mean of the replicates in which the pair was seen; lower is stronger.
"nd" means that the variant was in the library but no mating with the target was seen in any replicate; the authors take this as a sign of poor binding, and no number exists.
Entries are sorted by rising average, undetected variants last.
The authors averaged sequences with at least three values out of six and counted those with two or fewer as poor binders.

Variant GFNLDEYGIS / VIYADGKRTFYADSVK / GQVAGTFDV [En_HC] gave 190 pM (6 of 6 replicates). Variant GFDLNEYGIS / VIYADGRRTAYSDSVK / GEIAGTFDE [En_HC] showed 300 pM (6 of 6 replicates). With GFDINEYGIS / VIYADGRRTFYTDSVK / GENAGTFDS [En_HC] the result was 390 pM (6 of 6 replicates). For GFDLNEYGIS / VIYADGMRTAYADNVK / GQVAGTFDI [En_Gen], the assay gave 400 pM (6 of 6 replicates). With GFDLNEYGIS / VIYADGRRTAYSDSVK / GEAGGTFDE [En_HC] the result was 400 pM (6 of 6 replicates). With GFDLNEYGIS / VIYADGMRTAYADSVK / GQVAGTFDI [En_Gen] the result was 410 pM (6 of 6 replicates).

For GFDLNEYGIS / VIYADGRRTAYSDSVK / GEAAGTFDQ [En_HC], the assay gave 450 pM (6 of 6 replicates). With GFDLNEYGIS / VIYADGQRTFYADSVK / GEVAGTFDQ [En_Gen] the result was 450 pM (6 of 6 replicates). Variant GFDLDEYGIS / VIYADGQRTAYADSVK / GENAGTFDM [En_Gen] gave 470 pM (6 of 6 replicates). With GFDLNEYGIS / VIYADGMRTAYADSVK / GKNAGTFDM [En_Gen] the result was 490 pM (6 of 6 replicates). For GFDLNEYGIS / VIYADGQRTAYSDSVK / GENAGTFDQ [En_Gen], the assay gave 520 pM (6 of 6 replicates). For GFDLNEYGIS / VIYADGVRTAYIDSVK / GENAGTFDL [En_Gen], the assay gave 630 pM (6 of 6 replicates).

For GFDLNEYGIS / VIYADGQRTFYADSVK / GEIAGTFDV [En_HC], the assay gave 680 pM (6 of 6 replicates). With GFDLNEYGIS / VIYADGMRTFYADNVK / GNQAGTFDV [En_Gen] the result was 760 pM (6 of 6 replicates). With GFDLDEYGIS / VIYADGQRTAYADSVK / GGNAGTFDI [En_Gen] the result was 1.0 nM (6 of 6 replicates). For GFDLNEYGIS / VIYADGRRTFYADSVK / GQNAGTFSS [En_HC], the assay gave 1.2 nM (6 of 6 replicates). With GFDINEYGIS / VIYADGRRTQYADSVK / GETAGTFDS [En_HC] the result was 1.8 nM (6 of 6 replicates). For GFQLDEYGIS / VIYADGERTMYSNRVK / GTEGGTFDM [En_Gibbs], the assay gave 2.6 nM (6 of 6 replicates).

Variant GFNLNEYGIS / VIYADGRRTAYSDSVK / GEVAGTFDV [En_HC] showed 10 nM (5 of 6 replicates). Variant GQNLDEYGIS / VIYADGMRKWYADSVK / GNMSVGLVA [En_Gibbs] showed 16 nM (6 of 6 replicates). For GFDLNEYGIS / VIYADGVRTAYADDVK / GNQAGTFDT [En_Gen], the assay gave 46 nM (3 of 6 replicates). Variant GFNLQEYGIS / VMYADGSRVVYQDKVK / GFDAGTFDT [En_Gibbs] gave 180 nM (6 of 6 replicates). Variant GDDLEEYGIS / VIYADGMRTYYEDSVK / GNVNGTFFD [En_Gibbs] gave 1.8 µM (1 of 6 replicates). With GFKLDEYGIS / VIYADGHRVAYSNKVK / GDNMGNMVE [En_Gibbs] the result was 13 µM (1 of 6 replicates).

Variant GFLLDEYGIS / VIYADGQRTAYTDDVK / GYYGGIGTI [En_Gibbs] gave nd (0 of 6 replicates). Variant GFSLNDYGIS / VIYADGRRTFYGDSVK / DWWAGTVDS [Ctrl] showed nd (0 of 6 replicates). For GDDLEAYGIS / VIYADGMRTYYSDAVK / GNVNGTFTD [En_Gibbs], the assay gave nd (0 of 6 replicates). Variant GNLLDEYGIS / VIYADGKRTAYSDDVK / DVGSNVLVD [En_Gibbs] showed nd (0 of 6 replicates). For GFALDEYGIS / VIYADGSRTVYAGDVK / GMLGVNFTY [En_Gibbs], the assay gave nd (0 of 6 replicates). Variant GFDLDEMGIS / VIYADGVRTAYIDQVK / GMKGTFMNV [En_Gibbs] showed nd (0 of 6 replicates).

For GKSLDEYGIS / VIYADGMRVEYQNQVK / GTTVGDFFV [En_Gibbs], the assay gave nd (0 of 6 replicates). Variant GGDLNEYGIS / VIYADGNRKNYIDNVK / GQNGDVLNI [En_Gibbs] showed nd (0 of 6 replicates). For GYDLNEYGIS / VIYADGRRAAYIDDVK / DEVNDGVLV [En_Gibbs], the assay gave nd (0 of 6 replicates). Variant GFGLDEYGIS / VIYADGERRSYVDNVK / GFDGEKGIV [En_Gibbs] showed nd (0 of 6 replicates). With GFDLEEYGIS / VIYADGLRTMVLNSVK / GGLGQIFIV [En_Gibbs] the result was nd (0 of 6 replicates).

2 of these entries, quoted again:

CDR-H1,CDR-H2,CDR-H3,group,Kd,seen in
GFDLNEYGIS,VIYADGRRTAYSDSVK,GEAAGTFDQ,En_HC,450 pM,6 of 6
GYDLNEYGIS,VIYADGRRAAYIDDVK,DEVNDGVLV,En_Gibbs,nd,0 of 6

A sequence measured in both rounds can read differently, since the two assays cover different ranges.
Three control strains display no target. For all heavy chain designs, 1% of the pairings with them gave a signal, with a median of 120 nM and one signal in twenty below 7.0 nM, so weak values seen in few replicates may be background.
The parent sequence was in this pool as ten entries: three were never detected, three once, and four in most replicates, with averages from 2.2 nM to 240 nM.